Test results published in ChEMBL document CHEMBL1127438, “Substituted (S)-phenylpiperidines and rigid congeners as preferential dopamine autoreceptor antagonists: synthesis and structure-activity relationships” (J Med Chem, 1994).
Values belong to the compound of their own block, whether it stands above or below them.

The chains behind the UniProt entries cited, without tags or fusion partners.
UniProt P61169, whole entry: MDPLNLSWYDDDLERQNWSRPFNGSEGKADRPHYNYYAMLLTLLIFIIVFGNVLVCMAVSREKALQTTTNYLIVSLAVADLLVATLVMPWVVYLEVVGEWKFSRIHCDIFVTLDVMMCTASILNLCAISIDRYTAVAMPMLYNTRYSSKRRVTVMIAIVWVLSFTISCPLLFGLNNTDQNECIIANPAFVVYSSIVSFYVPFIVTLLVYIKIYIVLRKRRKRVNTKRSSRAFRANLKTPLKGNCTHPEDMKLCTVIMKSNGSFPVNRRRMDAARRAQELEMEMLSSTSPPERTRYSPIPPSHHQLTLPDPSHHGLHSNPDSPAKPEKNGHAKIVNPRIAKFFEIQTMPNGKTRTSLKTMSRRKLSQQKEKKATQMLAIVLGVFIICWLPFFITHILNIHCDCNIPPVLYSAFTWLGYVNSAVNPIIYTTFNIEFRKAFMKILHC
UniProt P14416, whole entry: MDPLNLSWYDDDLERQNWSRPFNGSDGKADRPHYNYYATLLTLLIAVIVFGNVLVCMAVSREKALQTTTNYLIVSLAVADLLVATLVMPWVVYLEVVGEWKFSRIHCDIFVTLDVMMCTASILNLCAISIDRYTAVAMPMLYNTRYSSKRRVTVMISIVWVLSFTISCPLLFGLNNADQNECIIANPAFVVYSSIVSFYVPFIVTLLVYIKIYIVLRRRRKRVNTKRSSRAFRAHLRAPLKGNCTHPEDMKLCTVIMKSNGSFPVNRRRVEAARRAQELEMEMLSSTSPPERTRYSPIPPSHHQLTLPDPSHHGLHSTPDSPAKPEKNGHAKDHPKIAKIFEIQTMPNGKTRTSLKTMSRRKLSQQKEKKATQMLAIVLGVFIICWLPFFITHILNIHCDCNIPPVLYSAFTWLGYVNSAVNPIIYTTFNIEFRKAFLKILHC
UniProt P35462, whole entry: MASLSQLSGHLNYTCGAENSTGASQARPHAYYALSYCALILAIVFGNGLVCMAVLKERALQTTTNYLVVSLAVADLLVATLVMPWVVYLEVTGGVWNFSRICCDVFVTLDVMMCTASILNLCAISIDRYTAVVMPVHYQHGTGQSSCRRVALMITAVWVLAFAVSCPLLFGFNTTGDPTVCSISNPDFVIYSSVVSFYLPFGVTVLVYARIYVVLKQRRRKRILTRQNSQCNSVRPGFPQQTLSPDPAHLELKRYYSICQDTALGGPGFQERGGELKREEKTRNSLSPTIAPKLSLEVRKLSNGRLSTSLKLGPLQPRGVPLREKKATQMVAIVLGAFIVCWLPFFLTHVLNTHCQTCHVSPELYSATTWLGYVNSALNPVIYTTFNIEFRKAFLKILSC

Legend:
D(2) dopamine receptor [1] = molecular target: T1, D(2) dopamine receptor (Rattus norvegicus, UniProt P61169)
D(2) dopamine receptor [2] = molecular target: T1, D(2) dopamine receptor; experiment: Tested for affinity against striatal dopamine autoreceptor (DA) D2 receptors using [3H]spiperone as radioligand in rats.
D(2) dopamine receptor [3] = molecular target: T2, D(2) dopamine receptor (Homo sapiens, UniProt P14416); experiment: biochemical
D(3) dopamine receptor = D(3) dopamine receptor (Homo sapiens, UniProt P35462); experiment: Tested for in vitro binding affinity against cloned mammalian dopamine D3 receptor, expressed in CHO-K1 cells, using [3H]spiperone as radioligand; assay type: cell-based
D(2) dopamine receptor [4] = molecular target: T2, D(2) dopamine receptor; experiment: biochemical; remark: listed apart in the source

Compound: N#Cc1cccc([C@@H]2CCCN(CC3CC3)C2)c1
Ki (D(2) dopamine receptor [1]): 3100 nM

Ki (D(2) dopamine receptor [2]): 92 nM
Compound: CCCN1CCC[C@@H](c2ccccc2OS(=O)(=O)C(F)(F)F)C1

Compound: CCCN1CCC[C@@H](c2cccc(O)c2)C1 [PRECLAMOL]
Ki (D(2) dopamine receptor [3]): 39 nM | Ki (D(3) dopamine receptor): 132 nM | Ki (D(2) dopamine receptor [4]): 8.5 nM
